Assay results from patent US8877759B2, “Aminopyrazines as ATR kinase inhibitors” (Vertex Pharnaceuticals Incorporated, priority 2011, dated 2014).

Sequences of proteins named here, by UniProt entry; tags and fusion partners are left off.
UniProt Q13535, whole entry: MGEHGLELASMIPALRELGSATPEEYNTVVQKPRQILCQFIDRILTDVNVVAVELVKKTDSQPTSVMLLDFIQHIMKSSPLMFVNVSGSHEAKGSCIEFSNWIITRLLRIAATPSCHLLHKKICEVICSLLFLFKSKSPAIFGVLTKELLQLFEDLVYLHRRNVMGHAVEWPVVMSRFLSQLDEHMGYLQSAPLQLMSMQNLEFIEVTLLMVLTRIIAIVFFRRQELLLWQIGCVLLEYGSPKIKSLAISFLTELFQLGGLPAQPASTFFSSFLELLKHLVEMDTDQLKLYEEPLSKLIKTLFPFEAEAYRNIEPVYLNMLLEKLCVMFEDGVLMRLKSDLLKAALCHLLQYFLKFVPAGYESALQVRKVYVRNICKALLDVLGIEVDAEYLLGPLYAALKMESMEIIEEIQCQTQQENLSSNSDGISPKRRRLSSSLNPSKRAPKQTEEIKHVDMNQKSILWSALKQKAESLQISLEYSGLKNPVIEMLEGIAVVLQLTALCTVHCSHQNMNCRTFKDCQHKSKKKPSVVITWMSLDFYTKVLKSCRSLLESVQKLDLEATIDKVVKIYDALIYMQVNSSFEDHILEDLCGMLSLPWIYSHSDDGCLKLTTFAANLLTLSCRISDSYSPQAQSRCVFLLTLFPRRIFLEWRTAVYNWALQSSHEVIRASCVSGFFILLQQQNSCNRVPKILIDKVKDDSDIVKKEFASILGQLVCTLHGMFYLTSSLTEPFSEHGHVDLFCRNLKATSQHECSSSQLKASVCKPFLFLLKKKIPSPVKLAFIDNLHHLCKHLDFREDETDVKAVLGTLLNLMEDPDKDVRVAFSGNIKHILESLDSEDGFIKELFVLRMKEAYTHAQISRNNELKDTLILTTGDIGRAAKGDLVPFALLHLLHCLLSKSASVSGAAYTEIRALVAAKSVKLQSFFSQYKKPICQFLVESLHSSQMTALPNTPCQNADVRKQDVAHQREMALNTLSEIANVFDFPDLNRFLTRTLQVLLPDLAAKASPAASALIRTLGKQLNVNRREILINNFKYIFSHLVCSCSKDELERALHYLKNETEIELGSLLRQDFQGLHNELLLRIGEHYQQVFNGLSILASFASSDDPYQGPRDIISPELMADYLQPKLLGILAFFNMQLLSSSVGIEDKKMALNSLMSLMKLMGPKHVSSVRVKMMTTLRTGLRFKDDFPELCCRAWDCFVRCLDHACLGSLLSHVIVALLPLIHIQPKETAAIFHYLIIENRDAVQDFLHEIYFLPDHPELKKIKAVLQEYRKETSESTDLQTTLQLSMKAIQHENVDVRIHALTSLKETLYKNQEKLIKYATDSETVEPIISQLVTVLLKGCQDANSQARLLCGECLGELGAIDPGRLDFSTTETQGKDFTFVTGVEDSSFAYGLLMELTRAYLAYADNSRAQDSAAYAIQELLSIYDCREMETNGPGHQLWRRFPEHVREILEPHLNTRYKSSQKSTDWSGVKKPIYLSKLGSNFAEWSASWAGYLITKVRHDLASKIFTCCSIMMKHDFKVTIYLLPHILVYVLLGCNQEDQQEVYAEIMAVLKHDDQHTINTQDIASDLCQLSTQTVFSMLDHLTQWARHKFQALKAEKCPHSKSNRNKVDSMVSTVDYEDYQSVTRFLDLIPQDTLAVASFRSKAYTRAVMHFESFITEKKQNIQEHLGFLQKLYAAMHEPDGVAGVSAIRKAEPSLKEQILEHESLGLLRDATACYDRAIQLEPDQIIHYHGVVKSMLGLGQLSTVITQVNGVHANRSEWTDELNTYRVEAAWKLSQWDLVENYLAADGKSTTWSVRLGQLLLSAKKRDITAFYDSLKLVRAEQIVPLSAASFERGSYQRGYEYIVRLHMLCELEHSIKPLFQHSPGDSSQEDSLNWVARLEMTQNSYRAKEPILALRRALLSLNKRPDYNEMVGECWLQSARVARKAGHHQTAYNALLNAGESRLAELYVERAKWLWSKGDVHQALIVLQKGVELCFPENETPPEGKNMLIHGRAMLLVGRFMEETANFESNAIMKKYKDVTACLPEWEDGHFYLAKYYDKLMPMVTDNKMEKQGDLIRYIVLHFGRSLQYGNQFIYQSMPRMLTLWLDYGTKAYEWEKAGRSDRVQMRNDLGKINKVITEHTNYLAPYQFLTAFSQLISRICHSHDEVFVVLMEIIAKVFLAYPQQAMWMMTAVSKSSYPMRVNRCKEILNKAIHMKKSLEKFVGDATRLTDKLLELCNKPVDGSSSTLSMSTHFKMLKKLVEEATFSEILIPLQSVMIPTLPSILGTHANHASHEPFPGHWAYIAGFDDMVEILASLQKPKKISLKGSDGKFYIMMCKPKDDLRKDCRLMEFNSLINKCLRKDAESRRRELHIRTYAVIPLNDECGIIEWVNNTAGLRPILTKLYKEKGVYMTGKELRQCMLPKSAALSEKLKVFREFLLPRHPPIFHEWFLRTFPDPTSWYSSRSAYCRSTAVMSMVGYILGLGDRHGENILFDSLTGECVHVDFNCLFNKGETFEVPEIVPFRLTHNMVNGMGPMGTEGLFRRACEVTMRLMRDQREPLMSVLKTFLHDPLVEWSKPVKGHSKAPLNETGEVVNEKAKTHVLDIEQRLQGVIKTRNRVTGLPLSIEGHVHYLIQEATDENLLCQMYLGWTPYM

Target: full-length ATR (Homo sapiens, UniProt Q13535)
Assay: ATR Inhibition Assay (radioactive-phosphate incorporation)
Conditions: read-out: ATR Ki; Ki(app); 5 nM full-length ATR, 10 μM [γ-33P]ATP, 800 μM target peptide, 25° C.

Structure (SMILES) | Ki [nM]
CN(Cc1ccc(-c2cc(-c3nc(-c4ccnc(C(C)(C)C#N)c4)cnc3N)on2)cc1)C1(C)COC1 | < 1
CC(C)(C#N)c1cc(-c2cnc(N)c(-c3nnc(-c4ccc(N5CCC(N)C5)cc4)o3)n2)ccn1 (centres unmarked) | < 1
